From patent US20080176907A1, “NOS Inhibitors For Treatment Of Motor Deficit Disorders” (Northwestern University, priority 2006, published 2008) come the findings set out here.

Where two headings read alike, the source gives them in different places.

The term Ki denotes the equilibrium dissociation constant of an inhibitor or competing ligand from its target.

The target in test [1] is T1, eNOS (Bos taurus, UniProt P29473). The settings on record: read-out: Ki eNOS.
Test [2] addresses T1, eNOS. Put plainly: biochemical.

With `N=C(NCCC[C@H](N)C(=O)N[C@H]1CN[C@H](C(N)=O)C1)N[N+](=O)[O-]` [compound 3], the inhibition constant (Ki) in test [1] was 128 µM. In turn, `N=C(NCCC[C@H](N)C(=O)O)N[N+](=O)[O-]` [εNNA, L-N^ω-nitroarginine] yielded an inhibitory constant (Ki) in test [2] of 0.75 µM.
